Measurements taken from published antibiotic growth screens (doi:10.1038/s41589-023-01349-8).
Some of the results follow.

What follows are compounds tested on A. baumannii ATCC 17978 (assay: relative growth (fraction of control); higher = less inhibition). Details: 50 µM.
Work on Cc1cc(C(=O)c2cc3cc(Cl)ccc3o2)ccc1Cl yielded a relative growth of 1.08. CCNC(=O)CC[C@@H](N)C(=O)O was tested, and the relative growth was 1.01. With CN1C(=O)c2cc(NC(=O)c3cscn3)ccc2OC[C@@H]2O[C@@H](CC(=O)N3CCOCC3)CC[C@H]21 the relative growth was 0.892. C[C@@H]1CN([C@@H](C)CO)S(=O)(=O)c2ccc(C#C[C@@H](C)O)cc2O[C@H]1CN(C)C showed a relative growth of 1.03. CCc1cc(=O)oc2cc(C)c3c(-c4ccccc4)coc3c12 showed a relative growth of 1.39. O=C(Nc1cccnc1)c1nc2ncccn2n1 showed a relative growth of 0.909. C[C@H](CO)N1C[C@H](C)[C@H](CN(C)C(=O)CN2CCOCC2)Oc2ncc(C#C[C@@H](C)O)cc2C1=O gave a relative growth of 1.21. With COc1ccc(S(=O)(=O)N[C@H]2CC[C@@H](CC(=O)N3CCN(c4ccccc4)CC3)O[C@H]2CO)cc1 the relative growth was 0.973. CC(C)CC#Cc1ccc2c(c1)O[C@@H](CN(C)C(=O)c1cnccn1)[C@@H](C)CN([C@@H](C)CO)S2(=O)=O was tested, and the relative growth was 0.759. With C[C@@H]1CN([C@@H](C)CO)S(=O)(=O)c2ccc(C#CCN(C)C)cc2O[C@H]1CN(C)C(=O)c1ccccc1F the relative growth was 1.03. For O=C(C[C@@H]1C=C[C@@H](NS(=O)(=O)c2ccccc2)[C@H](CO)O1)NCc1ccncn1, the relative growth was 1.11. In the case of O=C(O)c1ccc(S(=O)(=O)N(Cl)Cl)cc1, the relative growth is reported as 0.989. O=C(Oc1ccccc1C(=O)O)c1ccccc1O gave a relative growth of 1.28. For Brc1ccc2nc(N3CCCN(Cc4ccccc4)CC3)nc(NC3CCN(Cc4ccccc4)CC3)c2c1, the relative growth was 0.552. COc1c(C)c2c(c(O)c1C/C=C(\C)CCC(=O)O)C(=O)OC2 gave a relative growth of 0.912. In the case of C[C@@H](O)Cn1c(=N)n(C)c2ccccc21, the relative growth is reported as 1.22. Compound C[C@@H]1CC2C3CCC4=CC(=O)C=C[C@]4(C)[C@@]3(F)[C@@H](O)C[C@]2(C)[C@@]1(O)C(=O)COP(=O)([O-])[O-].[Na+].[Na+] (stereo partly drawn) has a relative growth of 1.1. For CC(C)CC#Cc1ccc2c(c1)O[C@@H](CN(C)C(=O)c1cnccn1)[C@H](C)CN([C@H](C)CO)S2(=O)=O, the relative growth was 0.916. CCCNC(=O)N1C[C@@H](O)COC[C@@H]2O[C@@H](CC(=O)N3CCN(C)CC3)CC[C@H]21 gave a relative growth of 0.96. For CO[C@@H]1CN(C)C(=O)c2ccc(NC(=O)Nc3cccc(F)c3)cc2OC[C@H](C)N(C(=O)Nc2c(C)noc2C)C[C@@H]1C, the relative growth was 1.11. CCCOc1ccc(=O)n(C)n1 gave a relative growth of 1.14. With Fc1cccc(-c2csc(COc3ccccc3Cl)n2)c1 the relative growth was 1.01. N[C@@H](c1ccncc1)c1ccc(OCc2ccccc2)cc1 was tested, and the relative growth was 0.972. In the case of C[C@H](CO)N1C[C@H](C)[C@@H](CN(C)C(=O)Nc2ccnc(N3CCOCC3)c2)OCc2cnnn2CCCC1=O, the relative growth is reported as 0.921. Work on C[C@H](CO)N1C[C@H](C)[C@H](CN(C)C(=O)c2ccc3c(c2)OCO3)Oc2cc(-c3ccncc3)ccc2S1(=O)=O yielded a relative growth of 1.04. In the case of O=C1C(CCS(=O)c2ccccc2)C(=O)N(c2ccccc2)N1c1ccccc1 (stereo not drawn), the relative growth is reported as 0.963. For CCOC(=O)[C@H](C(C)=O)[C@H]1CCS(=O)(=O)C1, the relative growth was 1.05. CC(=O)NCc1nnnn1C1CCCCC1 was tested, and the relative growth was 1.13. CNC[C@H](O)[C@@H](O)[C@H](O)[C@H](O)CO was tested, and the relative growth was 0.983. For O=C(C[C@@H]1CC[C@H]2[C@@H](COC[C@H](O)CN2C(=O)c2ccc3c(c2)OCO3)O1)NCCN1CCCCC1, the relative growth was 0.788. For O=C(C[C@H]1C=C[C@@H](NC(=O)c2cccnc2)[C@@H](CO)O1)NCCN1CCCCC1, the relative growth was 1.01. For CC(C)n1c(=S)[nH]c2ccccc21, the relative growth was 0.969. Compound Cn1cnc(S(=O)(=O)N[C@H]2C=C[C@@H](CC(=O)N3CCN(c4ccccc4)CC3)O[C@H]2CO)c1 has a relative growth of 1.09. COc1cccc(OC)c1C(=O)NN was tested, and the relative growth was 1.04. O=C(N/N=C/[C@H](O)[C@@H](O)[C@@H](O)[C@H](O)C(=O)O)c1ccccn1 showed a relative growth of 0.811. In the case of OC[C@H]1O[C@H](Oc2cc(O)cc(/C=C/c3ccc(O)cc3)c2)[C@H](O)[C@@H](O)[C@@H]1O, the relative growth is reported as 1.19. In the case of COCC(=O)N1C[C@H](C)[C@H](OC)CN(C)C(=O)c2ccc(NC(=O)Nc3cccc(F)c3)cc2OC[C@H]1C, the relative growth is reported as 0.852. CO[C@@H]1CN(C)C(=O)c2cc(NS(C)(=O)=O)ccc2OC[C@H](C)N(C(=O)C2CCCCC2)C[C@@H]1C was tested, and the relative growth was 0.982. COCCc1nc2c(c(=O)n(C)c(=O)n2C)n1C was tested, and the relative growth was 0.941. For Cc1cn2c(=O)c(C(=O)O)cnc2s1, the relative growth was 1.1. Compound COc1ccc(S(N)(=O)=O)cc1OC has a relative growth of 1.02. N=C1NCCC(C2NC(=O)/C(=C\NC(N)=O)NC(=O)C(CNC(=O)CC(N)CCCN)NC(=O)C(CO)NC(=O)C(N)CNC2=O)N1.O=S(=O)(O)O (stereo not drawn) was tested, and the relative growth was 0.88. Work on COc1ccc(C#Cc2ccc3c(c2)[C@]2(C(=O)N3)[C@H](C(=O)N3CCc4cc(OC)c(OC)cc4C3)[C@H]3C(=O)O[C@H](c4ccccc4)[C@H](c4ccccc4)N3[C@@H]2c2ccc(O)cc2)cc1 yielded a relative growth of 0.863. With O=C1CCN(c2ccccc2)N1 the relative growth was 1.03. With COc1ccc(S(=O)(=O)N2C[C@H](O)COC[C@@H]3O[C@H](CC(=O)NCc4ccc(Cl)c(Cl)c4)CC[C@H]32)cc1 the relative growth was 0.823. CCCCC/C=C/CCC(=O)N[C@H]1[C@H](Oc2c3cc4cc2Oc2ccc(cc2Cl)[C@@H](O[C@@H]2O[C@H](CO)[C@@H](O)[C@H](O)[C@H]2NC(C)=O)[C@@H]2NC(=O)[C@H](NC(=O)[C@@H]4NC(=O)[C@H]4NC(=O)C(Cc5ccc(c(Cl)c5)O3)NC(=O)[C@H](N)c3ccc(O)c(c3)Oc3cc(O)cc4c3)c3ccc(O)c(c3)-c3c(OC4O[C@H](CO)[C@@H](O)[C@H](O)[C@@H]4O)cc(O)cc3[C@@H](C(=O)O)NC2=O)O[C@H](CO)[C@@H](O)[C@@H]1O (stereo partly drawn) [TEICOPLANIN [A(2-1) shown]] gave a relative growth of 0.834. [O-][n+]1cccc(CO)c1 gave a relative growth of 0.957. Work on CCS(=O)(=O)NCC[C@@H]1CC[C@@H](NS(=O)(=O)c2ccccc2C)[C@H](CO)O1 yielded a relative growth of 0.864. In the case of O=c1c(O)c(-c2ccccc2)oc2cccc(O)c12, the relative growth is reported as 1.07. With C[C@]12CCC3c4ccc(O)cc4CCC3C1CC[C@@H]2O (stereo partly drawn) the relative growth was 0.945. In the case of Cl.Cl.O=C(O)COCCN1CCN(C(c2ccccc2)c2ccc(Cl)cc2)CC1 (stereo not drawn), the relative growth is reported as 1.42. Compound Cc1ccnc(NS(=O)(=O)c2ccc(N)cc2)n1 has a relative growth of 1.08. For Cc1cccc(NC(=O)C(C)C)c1, the relative growth was 0.865. COc1ccc(NC(=O)N2C[C@@H](O)COC[C@@H]3O[C@H](CC(=O)NC4Cc5ccccc5C4)CC[C@H]32)cc1 gave a relative growth of 0.899. Compound C[C@H](CO)N1C[C@H](C)[C@H](CN(C)C(=O)Cc2ccccn2)Oc2cc(-c3ccc(C(=O)N(C)C)cc3)ccc2S1(=O)=O has a relative growth of 1.05. Nc1cc(-c2ccccc2)ccc1O was tested, and the relative growth was 1.06. C/C1=C/CC(C)(C)/C=C/C/C(C)=C/CC1 [HUMULENE (alpha)] gave a relative growth of 1.04. With CCS(=O)(=O)NCC[C@H]1CC[C@@H](NS(=O)(=O)c2ccccc2C)[C@@H](CO)O1 the relative growth was 1. For CC(C)(C)c1ccc(C(=O)CCCN2CCC(OC(c3ccccc3)c3ccccc3)CC2)cc1, the relative growth was 1.01. Work on C(=N\C1CCCCCCCCCCC1)/c1ccco1 yielded a relative growth of 0.779. Work on Cn1cnc(S(=O)(=O)N2C[C@@H](O)COC[C@H]3O[C@@H](CC(=O)NC4Cc5ccccc5C4)CC[C@@H]32)c1 yielded a relative growth of 0.937. Work on O=c1ccn([C@@H]2O[C@H](CO)[C@@H](O)[C@H]2O)c(=O)[nH]1 yielded a relative growth of 0.899. Cl.NC12CC3CC(CC(C3)C1)C2 gave a relative growth of 1.19. For COc1cc2c(cc1OC)[C@@]13ON=C(c4ccc(OCCOC(=O)NCCCCCC(=O)NO)cc4)[C@@H]1CCN3CC2, the relative growth was 0.999. With O=c1c(O)c(-c2ccc(O)cc2)oc2ccccc12 the relative growth was 1.26. COC(=O)C1=C2CC[C@H](COC(=O)NCCCCCC(=O)NO)NC(=O)N[C@H](Cc3ccccc3)c3cn(nn3)C[C@@H](Cc3ccccc3)NC(=O)c3oc(c(C(=O)OC)c3C(=O)OC)CC[C@H](COC(=O)NCCCCCC(=O)NO)NC(=O)N[C@H](Cc3ccccc3)c3cn(nn3)C[C@@H](Cc3ccccc3)NC(=O)C(=C1C(=O)OC)O2 was tested, and the relative growth was 1. CN(C)CC(=O)N[C@@H]1CC[C@H](CCNC(=O)C2CC2)O[C@@H]1CO was tested, and the relative growth was 1.06. CCCCNc1cc(C(=O)O)cc(S(N)(=O)=O)c1Oc1ccccc1 showed a relative growth of 0.972. CC(C)(C)[S@](=O)N1Cc2cc(C(=O)N3CCCCC3)nc(-c3cccc(-c4cccc(C#N)c4)c3)c2[C@@H]1CCO was tested, and the relative growth was 1.07. For Cc1ccc(S(=O)(=O)N[C@H]2CC[C@H](CC(=O)N3CCC(Cc4ccccc4)CC3)O[C@H]2CO)cc1, the relative growth was 0.714. With C[C@H](Cn1cnc2c(N)ncnc21)OCP(=O)(O)O the relative growth was 0.919. O=C(O)CNC(=O)c1ccc(S(=O)(=O)N2CCOCC2)cc1 was tested, and the relative growth was 1.04. In the case of COc1cccc2c1C(=O)c1c(O)c3c(c(O)c1C2=O)C[C@@](O)(C(=O)CO)C[C@@H]3OC1C[C@H](N)[C@H](O)[C@H](C)O1 (stereo partly drawn), the relative growth is reported as 0.97. Work on COCC(=O)N(C)C[C@H]1Oc2cc(C#C[C@H](C)O)ccc2S(=O)(=O)N([C@H](C)CO)C[C@@H]1C yielded a relative growth of 1. With CN(C)/C=N/[C@@H]1N=C(C2CC2)N(C)C(=O)N1 the relative growth was 0.901. Compound CN(C)C(=O)C[C@H]1C=C[C@@H](NC(=O)C2CCOCC2)[C@H](CO)O1 has a relative growth of 0.923. In the case of CCOC(=O)[C@@H](N)Cc1ccccc1, the relative growth is reported as 0.982. Compound C#Cc1ccc([C@H]2C=C(C(=O)N3CCN(Cc4ccc5c(c4)OCO5)CC3)O[C@@H](OCC)[C@@H]2CCCO)cc1 has a relative growth of 0.798. Compound CCS(=O)(=O)NCC[C@H]1CC[C@H](NC(=O)C2CC2)[C@H](CO)O1 has a relative growth of 1.08. Work on Nc1c2c(=O)[nH]c(=O)cc-2[nH]n1-c1ccccc1 yielded a relative growth of 1.06. For CCOC(=O)c1c(C)oc(N)c1C(N)=O, the relative growth was 1.01. Compound c1ccc(-c2cc(-c3ccccc3)n(-c3ccccc3)n2)cc1 has a relative growth of 1.15. Work on CN(C)C(=O)C[C@H]1CC[C@H](NC(=O)C2CCOCC2)[C@@H](CO)O1 yielded a relative growth of 1.08.
